In the library only some 2.2% were active in any assay of this set; here they are far more common.
S100A4 inh HTS: blocks human S100A4 binding to myosin IIA peptide; AID 652163; P26447; inhibition, % at 10.7 µM; S100A4/TAMRA-MyoIIA peptide fluorescence polarization; hit rate 0.14% among 360,000;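 active = mean inhibition of at least 70% across replicates, with every replicate also reaching that level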
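Material: S100A4 monomer (human). Medium: Calcium-containing HEPES buffer, pH 7.2. Probe or stimulus: labelled myosin peptide probe, 5 nM. Compound dosing: one concentration per compound. Timing: polarization read 5 min after assay mix addition, stable 5–60 min. Benchmarks: DMSO as neutral control, TFP as positive control.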
PDI inh: blocks human protein disulfide isomerase activity; P07237; PDI insulin aggregation turbidity, A650, 90 min; inhibition, % at 10 µM; hit rate 0.052% among 350,000; AID 588391;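 active = mean inhibition across replicates of 30% or more, whatever share of single replicates reach that level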
FGF22 binding: binders of recombinant human FGF22 by thermal shift. Q9HCT0. SYPRO orange fluorescence; percent of sucrose octasulfate shift, DMSO zero. activity (Tm shift, normalised), % at 9.99 µM. hit rate 1.5% among 340,000. AID 651658;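 active = mean Tm shift, scaled 0 neutral to 100 positive control, at about 1.3% or above, every replicate too, limit read from the data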
UUG fidelity: modulators of yeast start codon fidelity, primary screen, whole organism, S. cerevisiae, single point, plate reader; S. cerevisiae UUG-firefly luciferase reporter, luminescence/redox ratio; activity score, % at 18.7 µM; actives 0.13% (n = 350,000);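 active means replicate mean at a twofold rise or more, about +100% in these data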;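 further: firefly luciferase made from a UUG start codon reports start codon fidelity; reporter light over untreated wells divided by growth signal over untreated wells; some hits fall short of that in this replicate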
ERp5 block: ERp5 (human) disulfide isomerase inhibition. Q15084. ERp5 insulin aggregation, absorbance 650 nm, 90 min. inhibition, % at 9.99 µM. hit rate 0.05% among 350,000. AID 651711;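 active = mean replicate inhibition above about 25%, with every replicate also reaching it, limit read from the data, passing the limit was not always enough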
SIRT5 inh: inhibitors of human sirtuin-5 desuccinylase; Q9NXA8; hit rate 1.1% among 330,000; Purified SirT5, succinyl-peptide AMC, trypsin-coupled fluorescence; inhibition, % at 15 µM; in the data active = inhibition above about 15%
Of the large screens only hits and unclear results are named; the others gave an inactive call.

O=C(C[C@H]1CC[C@H]2[C@@H](COC[C@@H](O)CN2Cc2ccccc2F)O1)N[C@H]1CCN(Cc2ccccc2)C1	none (no result: PDI inh)
O=C(C[C@H]1CC[C@@H]2[C@H](COC[C@@H](O)CN2Cc2ccccc2F)O1)N[C@H]1CCN(Cc2ccccc2)C1	SIRT5 inh 23.0 (no result: PDI inh)
C[C@@H](NC(=O)C[C@H]1CC[C@H]2[C@@H](COC[C@@H](O)CN2Cc2ccc(C(F)(F)F)cc2)O1)c1ccccc1	SIRT5 inh 16.7 (no result: PDI inh)
C[C@@H](NC(=O)[C@@H]1[C@@H](CO)[C@@H]2Cn3c(cccc3=O)[C@@H]2N1CC1CC1)c1ccccc1	none (no result: PDI inh)
CCCCCCCC/C=C\CCCCCCCC(=O)NCCO	none
CCCCCCCC/C=C\CCCCCCCC(=O)NCCc1ccc(O)c(O)c1	SIRT5 inh 31.7
Nc1ccc(C(=O)Nc2ccc3c(O)cc(S(=O)(=O)O)cc3c2)cc1	SIRT5 inh 65.8
Nc1ccc(NC(=O)c2ccc(C(=O)Nc3ccc(N)cc3)cc2)cc1	none
O=C(C[C@@H]1CC[C@@H](NC(=O)C2CCOCC2)[C@@H](CO)O1)Nc1ccc(-c2ccccc2)cc1	none (no result: PDI inh)
O=C(COC(=O)c1ccc(O)cc1)Nc1ncc(Cl)cc1Cl	FGF22 binding 43.7
O=C(COC(=O)c1ccc2c(c1)OCO2)Nc1ncc(Cl)cc1Cl	none (no result: UUG fidelity, SIRT5 inh)
COc1ccc(NC(=O)N(C)C[C@@H]2OCCCC[C@H](C)Oc3ccc(NC(=O)Nc4cccc5ccccc45)cc3C(=O)N([C@H](C)CO)C[C@@H]2C)cc1	none (no result: S100A4 inh HTS, PDI inh, ERp5 block, SIRT5 inh)
CC(C(=O)Nc1ccccc1C(=O)O)n1c(C(F)(F)F)nc2ccccc21 (stereo not drawn)	FGF22 binding 43.1 (no result: UUG fidelity)
CC(C)N(C(=O)Cn1cc(SCC(=O)NCc2ccco2)c2ccccc21)C(C)C	FGF22 binding 1.7
CCCn1cc(SCC(=O)NCc2ccco2)c2ccccc21	none (no result: S100A4 inh HTS, FGF22 binding, ERp5 block, SIRT5 inh)
CCOc1ccc(N(CC(=O)Nc2ccc(C)c(F)c2)C2=NC3CS(=O)(=O)CC3S2)cc1 (stereo not drawn)	SIRT5 inh 15.5
C[C@H]1CCCCO[C@H](CN(C)C(=O)Nc2ccccc2)[C@@H](C)CN([C@@H](C)CO)C(=O)c2cc(NC(=O)Nc3ccc(F)cc3)ccc2O1	none (no result: PDI inh)
CCN(CC)C(=O)C(=O)c1ccn(-c2c(C)csc2C(=O)OC)c1	FGF22 binding 43.0
COC(=O)c1scc(C)c1-n1ccc(C(=O)C(=O)N(C)C)c1	none
CCOc1ccc(N2C(=O)C3C(c4ccc(O)cc4)NC(CCSC)(C(=O)OC)C3C2=O)cc1 (stereo not drawn)	FGF22 binding 43.5 (no result: UUG fidelity)
COc1ccc2c3c([nH]c2c1)[C@@H](CO)N(Cc1ccccc1)CC31CCN(S(=O)(=O)c2ccc(C)cc2)CC1	none (no result: PDI inh, UUG fidelity)
Cc1ccccc1S(=O)(=O)NCC[C@@H]1CC[C@H](NS(=O)(=O)c2ccccc2C)[C@H](CO)O1	none (no result: PDI inh, UUG fidelity)
CCOC(=O)/C=C1\SCC(=O)N1CC(=O)NCc1ccc(OC)c(OC)c1	FGF22 binding 43.1 (no result: UUG fidelity)
Cc1ccnc(SCC(=O)O)n1	none (no result: S100A4 inh HTS, FGF22 binding, ERp5 block, SIRT5 inh)
COC(=O)CSc1nccc(C)n1	FGF22 binding 43.6 (no result: UUG fidelity)
CC(C)C[C@@H](CNCC(=O)[C@H](Cc1c[nH]c2ccccc12)NC(=O)c1[nH]cnc1C(=O)N[C@@H](C)CN)NC(=O)c1nc[nH]c1C(=O)N[C@@H](Cc1ccccc1)C(=O)O	UUG fidelity 130.6 (no result: SIRT5 inh)
CC(=O)Nc1c(O)nc(SC/C=C/CSc2nc(O)c(NC(C)=O)c(=O)[nH]2)[nH]c1=O	FGF22 binding 43.0 (no result: UUG fidelity)
C[C@@H]1CCCCO[C@@H](CN(C)C(=O)Nc2ccc(F)cc2)[C@@H](C)CN([C@@H](C)CO)C(=O)c2cc(NC(=O)Nc3ccc(C(F)(F)F)cc3)ccc2O1	none (no result: PDI inh, UUG fidelity)
CC(NC(=O)COC(=O)C12CC3CC(CC(O)(C3)C1)C2)c1ccccc1 (stereo not drawn)	FGF22 binding 43.1 (no result: UUG fidelity, SIRT5 inh)
COCC(C)n1c(SCC(=O)Nc2cc(C)on2)nc2ccccc2c1=O (stereo not drawn)	none (no result: FGF22 binding)
COCC(C)n1c(SCC(=O)NC(=O)NCc2ccccc2)nc2ccccc2c1=O (stereo not drawn)	FGF22 binding 44.4 (no result: SIRT5 inh)
C[C@H](CO)N1C[C@H](C)[C@H](CN(C)Cc2ccc(Oc3ccccc3)cc2)Oc2ccc(NC(=O)Cc3ccccc3)cc2C1=O	SIRT5 inh 43.0 (no result: PDI inh)
C[C@H]1CN([C@@H](C)CO)C(=O)c2cc(NC(=O)Cc3ccccc3)ccc2O[C@@H]1CN(C)Cc1ccc(Oc2ccccc2)cc1	SIRT5 inh 17.0 (no result: PDI inh)
C[C@@H]1CN([C@H](C)CO)C(=O)c2cc(NC(=O)CCC(F)(F)F)ccc2O[C@H]1CN(C)Cc1ccc(Oc2ccccc2)cc1	SIRT5 inh 26.5 (no result: PDI inh)
C[C@@H]1CN([C@@H](C)CO)C(=O)c2cc(NC(=O)Cc3cn(C)c4ccccc34)ccc2O[C@@H]1CN(C)Cc1ccc(Oc2ccccc2)cc1	SIRT5 inh 19.0 (no result: PDI inh)
C[C@@H]1CN([C@@H](C)CO)C(=O)c2cc(NC(=O)Cc3ccccc3)ccc2O[C@H]1CN(C)Cc1ccc(Oc2ccccc2)cc1	none (no result: PDI inh)
C[C@H](CO)N1C[C@H](C)[C@@H](CN(C)C(=O)C2CCCCC2)OCCCC[C@H](C)Oc2ccc(NS(=O)(=O)c3cn(C)cn3)cc2C1=O	none (no result: PDI inh)
C[C@@H]1CN([C@@H](C)CO)C(=O)c2cccc(NC(=O)CCCCCC(=O)Nc3ccccc3N)c2O[C@H]1CN(C)CC1CCCCC1	none (no result: PDI inh, UUG fidelity)
CC1(C)C(Cl)C(=O)C(C(=O)c2ccccc2)C(=O)C1Cl (stereo not drawn)	SIRT5 inh 94.1
CC1(C)C(=O)OC(C(=O)c2ccccc2)C(C)(C)C1=O (stereo not drawn)	none (no result: S100A4 inh HTS, FGF22 binding, ERp5 block, SIRT5 inh)
Cc1ccc(C)c(NC(=O)Cn2cnc3c(oc4ccccc43)c2=O)c1	FGF22 binding 44.7
Cc1ccc(NC(=O)Cc2c(F)cccc2Cl)cc1S(=O)(=O)N1CCOCC1	none
Cc1ccc(NS(=O)(=O)c2c(F)cc(F)c(Cl)c2F)cc1S(=O)(=O)N1CCOCC1	FGF22 binding 43.9 (no result: UUG fidelity, SIRT5 inh)
CCN1CCN(CC(=O)Nc2nc3ccccc3s2)CC1	none
CSc1nsc(SCC(=O)Nc2nc3ccccc3s2)n1	FGF22 binding 44.5
CN1CCN(CC(=O)Nc2nc3ccccc3s2)CC1	SIRT5 inh 21.4
CCCCNc1ccc(C(F)(F)F)cc1S(=O)(=O)NCCc1ccc(F)cc1	FGF22 binding 20.5 (no result: SIRT5 inh)
COc1cc(/C=C2\C(=N)N3N=C(S(C)(=O)=O)SC3=NC2=O)ccc1OCCOc1ccccc1C	SIRT5 inh 33.2
COc1ccc(N2CC(C(=O)O)CC2=O)cc1 (stereo not drawn)	none
COc1ccc(N2CS(=O)CC2=O)cc1 (stereo not drawn)	FGF22 binding 43.0
C[C@H](NC(=O)C[C@H]1CC[C@@H](NC(=O)CN2CCOCC2)[C@@H](CO)O1)c1ccccc1	none (no result: PDI inh)
